We go through one compound from patent US20040162345A1, “Compounds with NEP/MP-inhibitory activity and uses thereof” (Solvay Pharmaceuticals GmbH, priority 2001, published 2004).

The IC50 is the concentration needed to halve the response being measured.

In the assay the target is T1, Recombinant human COOH-terminal His6-tagged endothelin converting enzyme-1 (Homo sapiens, UniProt P42892).
T1 construct: His6 (C); purchased Innogenetics, Ghent, Belgium; host or cells: Sf9 cells
T1 sequence (P42892 1-770): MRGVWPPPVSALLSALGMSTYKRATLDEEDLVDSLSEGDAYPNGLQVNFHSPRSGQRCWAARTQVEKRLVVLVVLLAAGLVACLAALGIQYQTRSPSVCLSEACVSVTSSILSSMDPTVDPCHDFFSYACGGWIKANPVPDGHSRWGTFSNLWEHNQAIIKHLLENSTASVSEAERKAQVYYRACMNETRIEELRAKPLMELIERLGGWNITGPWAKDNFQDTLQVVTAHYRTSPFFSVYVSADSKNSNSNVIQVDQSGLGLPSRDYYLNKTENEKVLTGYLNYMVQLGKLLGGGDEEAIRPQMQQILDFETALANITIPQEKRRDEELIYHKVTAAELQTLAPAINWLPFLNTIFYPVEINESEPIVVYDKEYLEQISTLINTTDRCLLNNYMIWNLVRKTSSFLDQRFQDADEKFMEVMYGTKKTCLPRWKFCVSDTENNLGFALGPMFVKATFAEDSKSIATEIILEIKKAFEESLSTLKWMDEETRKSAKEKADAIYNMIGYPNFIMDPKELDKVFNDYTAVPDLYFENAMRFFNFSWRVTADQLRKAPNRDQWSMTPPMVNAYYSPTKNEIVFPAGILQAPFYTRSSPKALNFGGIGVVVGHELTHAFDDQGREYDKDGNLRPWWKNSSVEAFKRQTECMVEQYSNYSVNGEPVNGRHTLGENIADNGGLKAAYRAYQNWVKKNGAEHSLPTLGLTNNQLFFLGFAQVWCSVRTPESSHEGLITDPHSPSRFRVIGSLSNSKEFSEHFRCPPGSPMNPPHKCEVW
In words: ECE enzyme inhibition assay (17 amino acid truncated big endothelin-1, HPLC). The assay is classed as biochemical.

Turning to `Cc1nn(-c2ccccc2)c(NC(=O)NS(=O)(=O)c2ccc(Cl)cc2)c1C#N.[Na]` [monosodium salt], the concentration for half-maximal inhibition (IC50) stood at 0.0117 µM.
